Results: patent US10640533B2, “Epoxyketone compounds for enzyme inhibition” (CENTRAX INTERNATIONAL, INC., priority 2014, dated 2020)
Where two headings read alike, the source gives them in different places.

Assays:
[1] = biological target: 20S Immunoproteasome trypsin-like (T-L) activity (Homo sapiens (Human), UniProt P40306+P49720); test: 20S immunoproteasome T-L activity inhibition, fluorogenic substrate Boc-Leu-Arg-Arg-AMC; assay type: biochemical; conditions: read-out: Proteasome inhibition IC50 (nM) 20S Immunoproteasome T-L; purified human 20S proteasome, room temperature, one hour
[2] = biological target: Constitutive 20S proteasome trypsin-like (T-L) activity (Homo sapiens (Human), UniProt P49720+Q99436); test: Constitutive 20S proteasome T-L activity inhibition, fluorogenic substrate Boc-Leu-Arg-Arg-AMC; assay type: biochemical; conditions: read-out: Proteasome inhibition IC50 (nM) Constitutive 20S proteasome T-L; purified human 20S proteasome, room temperature, one hour
[3] = biological target: 20S Immunoproteasome chymotrypsin-like (CT-L) activity (Homo sapiens (Human), UniProt P20618+P28062); test: 20S immunoproteasome CT-L activity inhibition, fluorogenic substrate succinyl-Leu-Leu-Val-Tyr-AMC; assay type: biochemical; conditions: read-out: Proteasome inhibition IC50 (nM) 20S Immunoproteasome CT-L; purified human 20S proteasome, room temperature, one hour
[4] = Aqueous solubility of the compounds; conditions: 50 mM citrate pH4.0, 25° C., 24 hours
[5] = biological target: Constitutive 20S proteasome chymotrypsin-like (CT-L) activity (Homo sapiens (Human), UniProt P20618+P28074); test: Constitutive 20S proteasome CT-L activity inhibition, fluorogenic substrate succinyl-Leu-Leu-Val-Tyr-AMC; assay type: biochemical
[6] = system: HT-29 human colorectal adenocarcinoma xenografts; test: Anti-tumor efficacy in mice bearing HT-29 human colorectal adenocarcinoma xenografts; conditions: intravenous, Days 1, 2 and 5 each week for 4-5 weeks; 2-way ANOVA; FIG. 2A
[7] = biological target: Constitutive 20S proteasome peptidylglutamyl peptide hydrolyzing (PGPH) activity (Homo sapiens (Human), UniProt P28072+Q99436); test: Constitutive 20S proteasome PGPH activity inhibition, fluorogenic substrate Z-Leu-Leu-Glu-AMC; assay type: biochemical; conditions: read-out: Proteasome inhibition IC50 (nM) Constitutive 20S proteasome PGPH; purified human 20S proteasome, room temperature, one hour
[8] = system: RL human lymphoma xenografts; test: Anti-tumor efficacy in mice bearing RL human lymphoma xenografts; conditions: intravenous, Days 1, 2 and 5 each week for 4-5 weeks; 2-way ANOVA; FIG. 2B

- IC50 [1]: 14400 nM
- IC50 [2]: 15300 nM
- IC50 [3]: 0.92 nM
- Aqueous solubility (mg/mL) at pH4.0 (50 mM citrate) [4]: 2.88 mg/mL
- IC50 ([5]; read-out: Proteasome inhibition IC50 (nM) Constitutive 20S proteasome CT-L, purified human 20S proteasome, room temperature, one hour): 1.09 nM
- IC50 ([5]; read-out: concentration showing inhibition (e.g. at least 50% inhibition) of CT-L activity of the 20S proteasome, form of 20S proteasome not stated, 'below about'): < 5 nM
- IC50 [7]: > 20000 nM
Structure (SMILES): CC(C)C[C@@H](NC(=O)[C@@H](Cc1ccncc1)NC(=O)[C@@H](CCc1ccccc1)NC(=O)c1cc(CN2CCOCC2)on1)C(=O)[C@]1(C)CO1
- tumor growth (tumor volume), HT-29 xenografts [6]: significantly suppressed tumor growth
- tumor growth (tumor volume), RL xenografts [8]: significantly suppressed tumor growth
